Test results published in patent publication US20260007720A1, “TISSUE REGENERATIVE MULTI-DRUG COCKTAIL AND APPARATUS FOR DELIVERY THEREOF” (priority 2022, published 2026).

Experiments:
amputated P2 bone [1] = test: Single treatment with growth factor cocktails after P2 amputation (micro-CT recovered bone); format: in vivo, adult CD-1 mice; details: single treatment for 7 days; micro-CT at 98 days post amputation
Experimental: 3D representation of different metrics used to calculate the percentage of recovered bone. Recovered bone is the amount of new bone formed (Lt-LE) compared to the amount of bone removed (La).
Hydrogel Fabrication—For silk hydrogel preparation, the silk solution was diluted to a working concentration of 3% (w/v) using Hanks buffer solution with phenol red (Sigma-Aldrich, St. Louis MO), DMEM (1:10 dilution of stock, Sigma-Aldrich, St. Louis, MO), Glutamax™ (1:100 stock solution, Fischer Scientific, Waltham MA) and dextrose (final concentration at 4.5 mg/mL gel solution, Sigma-Aldrich, St. Louis, MO). The system was then enzymatically cross-linked at the tyrosine side chains using horseradish peroxidase enzyme (HRP) at 5 U/ml (Sigma-Aldrich, St. Louis, MO) with hydrogen peroxide at 0.0067% overall volume. Sodium bicarbonate was added to balance the pH of the hydrogel based on the color of the gel generated by the phenol red present in the supplemented Hank's buffer solution and concentrated DMEM. Silk hydrogels loaded with bioactive compounds are fabricated by mixing the active ingredients with SF prior to gelation to modulate the wound microenvironment. The liquid solution was poured into the silicon sleeve and allowed to gel for one hour at room temperature and stored at 4° C. for no more than 12 hours before attachment to the limb stump. […]

amputated P2 bone [2] = test: Multiple treatments targeting chondrogenesis after P2 amputation; format: in vivo, adult CD-1 mice; details: 98 days after amputation
Experimental: A) Schematic illustration of the timeline of the experiment. B) Quantification of net-recovered bone after multiple treatment by IGF-1 and BMP2 at 98 days after amputation. C) Representative micro-CT renderings of the bone of C) IGF-1 and D) BMP2 treated groups. The red dashed line represents the amputation plane. Scale bar=250 μm.
Amputation Surgery and Device Attachment and Removal—All experiments were performed under the approval of Tuft's IACUC. All animals were housed in 12-hour light and dark cycles and fed using the recommended feed. Female CD-1 (Charles River Laboratories, Wilmington, MA) and FVB/NJ mice (Jackson Laboratories, Bar Harbor, ME) from 8 to 10 weeks of age were used in the study. Animals were anesthetized with isoflurane administered at 2 to 5% air composition. For single treatment (FIG. 20A), P2 amputation in hindlimb digit 3 was made using a scalpel under a dissection microscope. Immediately after P2 amputation, the dragonskin insert containing silk hydrogel with or without bioactive molecules was then attached to the amputated digit using Skin Tite™ Bioadhesive (Smooth-On, PA). Prior to hydrogel loading, all materials and tools used in the experiment (e.g. surgical tools and device components) were autoclaved to ensure sterility. Devices were attached for various time periods and the amputation digits were then allowed to heal after device removal. […]

B1: bone morphogenetic protein 2 (protein, UniProt P12643 283-396, looked up)
Bone morphogenetic protein 2: QAKHKQRKRLKSSCKRHPLYVDFSDVGWNDWIVAPPGYHAFYCHGECPFPLADHLNSTNHAIVQTLVNSVNSKIPKACCVPTELSAISMLYLDENEKVVLKNYQDMVVEGCGCR
notes: growth factor, 600 ng-2 μg in silk hydrogel
P2 bone elongation (amputated P2 bone [1]): promotes P2 bone elongation | P2 bone elongation (amputated P2 bone [2]): promote P2 bone elongation
